Measurements as given in patent publication US20200138854A1, “Method of Detecting and Quantifying Bile Acid from Saliva” (Ironwood Pharmaceuticals, Inc., priority 2017, published 2020).
Several values for one entry are separate records, joined by “and”; a condition that tells them apart may be missing. Equal values may be shown once.

Assay: Frozen (−20° C.) short-term stability in cholestyramine-treated human saliva
Conditions: individual values, run 33

C[C@H](CCC(=O)O)[C@H]1CC[C@H]2[C@@H]3[C@H](O)C[C@@H]4C[C@H](O)CC[C@]4(C)[C@H]3C[C@H](O)[C@]12C [Cholic Acid, Cholic acid]
Concentration after frozen (−20° C.) storage (Storage period 1 Day, QC-High, nominal 80.0 ng/mL): 76.1 ng/mL and 77.8 ng/mL and 69.8 ng/mL and 75.0 ng/mL | Concentration after frozen (−20° C.) storage (Storage period 1 Day, QC-LLOQ, nominal 0.500 ng/mL): 0.466 ng/mL and 0.497 ng/mL and 0.486 ng/mL and 0.533 ng/mL | Concentration after frozen (−20° C.) storage (Storage period 1 Day, QC-Mid, nominal 8.00 ng/mL): 7.09 ng/mL and 7.67 ng/mL and 7.70 ng/mL and 7.64 ng/mL | Concentration after frozen (−20° C.) storage (Storage period 2 Days, QC-High, nominal 80.0 ng/mL): 74.6 ng/mL and 77.9 ng/mL and 72.3 ng/mL and 75.5 ng/mL | Concentration after frozen (−20° C.) storage (Storage period 2 Days, QC-LLOQ, nominal 0.500 ng/mL): 0.535 ng/mL and 0.561 ng/mL and 0.555 ng/mL and 0.591 ng/mL | Concentration after frozen (−20° C.) storage (Storage period 2 Days, QC-Mid, nominal 8.00 ng/mL): 7.43 ng/mL and 7.73 ng/mL and 7.80 ng/mL and 7.90 ng/mL
